# Data published in PubChem BioAssay AID925 (National Center for Advancing Translational Sciences (NCATS), 2007).
# Only a part is listed here, and it is no random draw. Some of these compounds have results that are not shown, active ones among them. Active and inactive are the calls of the source. The call rests on the fitted dose curve; in most records, active means well fitted activation curve with a large enough effect; inconclusive means small, poorly fitted or top-dose-only effect; inactive means flat fitted curve, though single readings scatter.
# Experiment: qHTS Assay for Modulators of Hemoglobin Beta Chain Splicing; further: 0% is about no effect
# Settings: HBB splicing reporter cell assay, EGFP reporter with mutant IVS2-654 intron, normalised to 500 nM splice-correcting PNA; at 9.22 µM unless noted
# Text: NIH Chemical Genomics Center [NCGC]
# NIH Molecular Libraries Screening Centers Network [MLSCN]
# PI Name: Dr. Ryszard Kole
# Modulation of Alternative Splicing as Therapy
# Abnormal splicing is associated with a number of diseases, including cancer and genetic diseases such as cystic fibrosis, muscular dystrophy and beta-thalassemia. Alteration of disease associated splicing patterns provides a promising target for treatment. […] Mutations in the second intron of the beta-globin gene at positions are clinically relevant and cause mis-splicing which results in an out of frame gene product.
# EGFP-654 and 705 HeLa Cells as screen system.
# HeLa cell lines were stably transfected with a construct in which the EGFP (enhanced green fluorescent protein) cDNA was interrupted by the second intron of the beta-globin gene (IVS2-654). The ISV2 intron contains mutations which cause mis-splicing of EGFP and premature termination of EGFP which results in a nonfluorescent protein product. […] Expression of the transgene was driven by the CMV promoter. We concluded that a low molecular weight compound, which restored correct splicing of intron 2 would also generate functional EGFP protein, resulting in a fluorescent signal. Thus, the HeLa cells that express the EGFP-654 construct can be used for high throughput screening of a chemical library.
# NCGC Assay Protocol Summary:
# High Throughput Screening. Freshly thawed HeLa EGFP-654 cells were seeded in 5 ul of optimem media (Invitrogen) containing 2 % fetal calf serum (Hyclone) and 1x penicillin/streptomycin (Invitrogen) at a concentration of 500 cells per well in 1536-well plates. Cells were incubated overnight at 37C in 5% CO2. The next day, cells were treated with DMSO, 500 nM antisense ISV2 654 PNA control oligo, or library compound and allowed to grow at 37C in 5% CO2 for 2 days. The PNA oligo blocked the mutation site in the intron and allowed proper (wild type) splicing to occur, resulting in full length EGFP expression and also allowed for optimization of the assay parameters. Plates were read in the Acumen Explorer (TTP Labtech) using 488 nm laser excitation and 500-520 nm emission PMT filter in a 1 x […] capture mode. Fluorescnet Fluorescent objects ranging in size from […] were measured and the total peak GFP intensity for each well was used for data analysis.
# Keywords: Thalassemia, beta-thalassemia, beta-globin, EGFP, ISV2 654, ISV2 705, SSO, PNA, antisense, splicing, MLSMR, MLSCN, NIH Roadmap, qHTS, NCGC
row,SMILES,activation
1,CN(C)c1cccc(C(=O)NCC2(N(C)C)CCCCC2)c1,inactive: -2.46% [at 46.1 µM]
2,CN1CCC[C@H](OC(=O)[C@](O)(c2ccccc2)C2CCCC2)C1,inactive: 3.64%
3,CN1CC[C@H](OC(=O)[C@](O)(c2ccccc2)C2CCCC2)C1,inactive: 4.11%
4,C=C(C)C#C[C@@](O)(C(=O)OC1CCN(C)CC1)c1ccccc1,inactive: 0.866%
